Data on one compound can be found in US20080057136A1, “Disinfecting Composition and Methods of Making and Using Same” (priority 2003, published 2008).

This assay concerns Trichophyton rubrum (ATCC 28188). The assay can be described thus: Time-Kill test (Example 9). The assay is classed as cell-based.

Regarding `O=C(O)CN(CCN(CC(=O)O)CC(=O)O)CC(=O)O.[Zn]`, the “Relative Kill Potency” value was determined as 0.52. Also, the “30-Second Reduction from Initial CFU Values” (2,200,000 CFU initial) worked out at 4.89 fold. Further, the “reduction of T. rubrum count” value (Study 509-101, in 30 sec) is on record as “not effective”.
